This passage reports Kd results from publication PMC11123931, “The Synergistic Effect of N2 and N7 Modifications on the Inhibitory Efficacy of mRNA Cap Analogues” (Pharmaceuticals, 2024).

Amino acid sequences for entries named in this document (tags omitted).
UniProt P06730, whole entry: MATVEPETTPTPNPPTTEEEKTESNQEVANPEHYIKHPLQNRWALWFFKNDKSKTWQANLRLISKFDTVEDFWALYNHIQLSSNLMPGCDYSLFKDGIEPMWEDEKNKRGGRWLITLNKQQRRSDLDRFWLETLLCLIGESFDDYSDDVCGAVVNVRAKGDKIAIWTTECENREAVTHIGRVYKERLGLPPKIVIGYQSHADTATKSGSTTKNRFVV

The assay concerns the target T1, human eIF4E (heIF4E) (Homo sapiens, UniProt P06730).
T1 construct: The thermal stability of human full-length eIF4E (heIF4E) was analyzed; made in house
Put plainly: Thermal stabilization of heIF4E by differential scanning fluorimetry (DSF). To be noted: from ΔTm versus ligand concentration, single site ligand binding model, 1% DMSO, read-out: appK ± SE (apparent affinity to heIF4E). The protocol:
The thermal stability of human full-length eIF4E (heIF4E) was analyzed using differential scanning fluorimetry (DSF), similar to that described previously for murine eIF4E [30]. heIF4E was expressed and purified as described earlier. The assay sample (20 μL) contained 5× SYPRO Orange (Sigma Aldrich, St. Louis, MO, USA) and 4 μM of heIF4E (final concentration) in HEPES/KOH with 100 mM KCl, 0.5 mM EDTA, and 1 mM DTT (pH 7.2). The tested compounds, as 10× stocks in 10% DMSO, were added to the final concentration at a range from 1 μM to 200 μM. DMSO at a 1% final concentration was then added to the control reactions without any compounds. […] The melting temperature (Tm) was determined as the minimum of the first negative derivative with the built-in CFX Manager Software (Bio-Rad).
Background: Differential scanning fluorimetry follows unfolding on heating by fluorescence.

`Cn1c[n+]([C@@H]2O[C@H](COP(=O)(O)OP(=O)([O-])OP(=O)(O)OC[C@H]3O[C@@H](n4cnc5c(=O)[nH]c(N)nc54)[C@H](O)[C@@H]3O)[C@@H](O)[C@H]2O)c2nc(N)[nH]c(=O)c21` [m^7GpppG]: the Kd was determined as 11.3 ± 1.09 µM.
